Test results taken from patent publication US9624209B2, “Substituted phenylureas and phenylamides as vanilloid receptor ligands” (Gruenenthal GmbH, priority 2009, dated 2017).

The chains behind the UniProt entries cited, without tags or fusion partners.
UniProt O35433, whole entry: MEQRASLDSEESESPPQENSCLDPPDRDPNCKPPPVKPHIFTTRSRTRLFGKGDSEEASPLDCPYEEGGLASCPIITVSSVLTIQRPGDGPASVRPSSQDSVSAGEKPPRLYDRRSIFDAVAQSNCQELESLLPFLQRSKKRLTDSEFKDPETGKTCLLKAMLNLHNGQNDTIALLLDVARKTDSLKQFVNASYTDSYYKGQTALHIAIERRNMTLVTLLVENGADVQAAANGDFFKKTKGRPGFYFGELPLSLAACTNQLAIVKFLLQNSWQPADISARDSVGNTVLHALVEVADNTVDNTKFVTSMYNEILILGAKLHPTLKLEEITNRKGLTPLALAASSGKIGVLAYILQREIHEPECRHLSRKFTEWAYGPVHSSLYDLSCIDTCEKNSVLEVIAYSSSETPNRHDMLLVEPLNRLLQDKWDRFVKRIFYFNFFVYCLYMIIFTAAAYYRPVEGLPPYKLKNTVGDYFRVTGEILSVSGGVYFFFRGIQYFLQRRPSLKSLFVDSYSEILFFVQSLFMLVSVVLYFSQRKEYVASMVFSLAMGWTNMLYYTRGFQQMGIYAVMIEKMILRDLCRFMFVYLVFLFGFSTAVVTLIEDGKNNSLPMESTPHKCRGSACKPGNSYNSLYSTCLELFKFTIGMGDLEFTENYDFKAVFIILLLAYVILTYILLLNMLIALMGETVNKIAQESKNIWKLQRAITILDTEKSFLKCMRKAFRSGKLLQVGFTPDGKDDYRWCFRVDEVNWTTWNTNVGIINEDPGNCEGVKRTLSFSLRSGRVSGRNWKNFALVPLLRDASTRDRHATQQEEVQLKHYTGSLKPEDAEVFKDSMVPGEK

Biological target: T1, vanilloid receptor 1 (VR1/TRPV1 receptor) (Rattus norvegicus, UniProt O35433)
T1 construct: The vertebral column is removed from decapitated rats; from tissue; host or cells: primary cells from rat dorsal root ganglia (DRG)
Test: VR1/TRPV1 receptor affinity, NADA stimulus (rat)
Format: cell-based
Details: N-arachidonoyl dopamine

Ki: 0.03 nM
Structure (SMILES): CC(C(=O)NCc1cc(C(C)(C)C)nn1-c1cccc(Cl)c1)c1ccc(NS(C)(=O)=O)c(F)c1 (stereo not shown) [Example 16, N-((3-tert-butyl-1-(3-chlorophenyl)-1H-pyrazol-5-yl)methyl)-2-(3-fluoro-4-(methylsulfonamido)phenyl)propanamide]
